Results: ChEMBL document CHEMBL1250451, “Mechanistic insights into a Ca2+-dependent family of alpha-mannosidases in a human gut symbiont” (Nat Chem Biol, 2010)

Assays:
Type in all cases: protein assay
[1] = molecular target: T1, Alpha-1,2-mannosidase (BT_3991) (Bacteroides thetaiotaomicron) (UniProt Q8A0N0); assay: Activity of Bacteroides thetaiotaomicron GH92 alpha-mannosidase GH92 alpha-mannosidase 3991 assessed as mannose release at 1 mM after 16 hrs by HPLC relative to untreated control after 16 hrs by HPLC
T1 sequence (whole entry): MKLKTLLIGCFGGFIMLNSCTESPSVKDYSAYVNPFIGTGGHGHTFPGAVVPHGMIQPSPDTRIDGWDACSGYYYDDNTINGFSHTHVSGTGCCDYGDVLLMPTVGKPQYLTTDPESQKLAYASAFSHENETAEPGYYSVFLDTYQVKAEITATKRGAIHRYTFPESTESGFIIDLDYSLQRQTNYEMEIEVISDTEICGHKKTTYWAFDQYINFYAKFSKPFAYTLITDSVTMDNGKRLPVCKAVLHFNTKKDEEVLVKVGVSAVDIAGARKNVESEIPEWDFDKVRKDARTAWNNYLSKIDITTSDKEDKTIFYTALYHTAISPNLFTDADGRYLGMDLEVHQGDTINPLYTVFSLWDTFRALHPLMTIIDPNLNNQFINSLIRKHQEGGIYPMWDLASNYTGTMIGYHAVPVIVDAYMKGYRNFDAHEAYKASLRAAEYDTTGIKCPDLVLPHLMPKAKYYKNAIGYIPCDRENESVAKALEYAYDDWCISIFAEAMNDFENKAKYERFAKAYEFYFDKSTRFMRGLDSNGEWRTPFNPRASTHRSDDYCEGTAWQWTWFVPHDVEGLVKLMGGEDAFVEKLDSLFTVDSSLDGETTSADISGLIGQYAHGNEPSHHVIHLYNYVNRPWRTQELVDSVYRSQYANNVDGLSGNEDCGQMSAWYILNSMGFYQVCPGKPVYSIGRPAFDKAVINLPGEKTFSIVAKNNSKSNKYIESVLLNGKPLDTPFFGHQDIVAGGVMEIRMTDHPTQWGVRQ

[2] = molecular target: T2, Alpha-1,2-mannosidase, putative (BT_3130) (Bacteroides thetaiotaomicron) (UniProt Q8A325); assay: Activity of Bacteroides thetaiotaomicron GH92 alpha-mannosidase GH92 alpha-mannosidase 3130 assessed as mannose release at 1 mM after 16 hrs by HPLC relative to untreated control after 16 hrs by HPLC
T2 sequence (whole entry): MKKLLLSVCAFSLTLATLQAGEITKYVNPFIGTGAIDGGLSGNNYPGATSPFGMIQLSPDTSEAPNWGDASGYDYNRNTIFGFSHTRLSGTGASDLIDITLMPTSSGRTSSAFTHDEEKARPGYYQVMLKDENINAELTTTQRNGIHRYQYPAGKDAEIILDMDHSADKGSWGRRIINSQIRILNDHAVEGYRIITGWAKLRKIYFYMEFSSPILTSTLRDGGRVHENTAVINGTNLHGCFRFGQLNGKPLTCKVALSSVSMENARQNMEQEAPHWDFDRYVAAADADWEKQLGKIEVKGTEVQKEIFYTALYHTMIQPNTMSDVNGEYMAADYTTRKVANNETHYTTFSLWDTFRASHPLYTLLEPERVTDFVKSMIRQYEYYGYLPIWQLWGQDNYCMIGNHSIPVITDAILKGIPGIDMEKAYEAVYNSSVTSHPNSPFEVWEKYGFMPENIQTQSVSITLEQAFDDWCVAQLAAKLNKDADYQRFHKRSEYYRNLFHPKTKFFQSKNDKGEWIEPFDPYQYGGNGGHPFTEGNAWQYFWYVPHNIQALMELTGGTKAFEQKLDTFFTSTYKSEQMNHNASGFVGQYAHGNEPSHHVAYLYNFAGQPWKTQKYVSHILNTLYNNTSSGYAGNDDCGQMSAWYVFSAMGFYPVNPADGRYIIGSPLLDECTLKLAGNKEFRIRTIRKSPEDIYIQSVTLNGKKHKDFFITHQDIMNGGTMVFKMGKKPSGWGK

[3] = molecular target: T3, Alpha-1,2-mannosidase (BT_3994) (Bacteroides thetaiotaomicron) (UniProt Q8A0M7); assay: Activity of Bacteroides thetaiotaomicron GH92 alpha-mannosidase GH92 alpha-mannosidase 3994 assessed as mannose release at 1 mM after 16 hrs by HPLC relative to untreated control after 16 hrs by HPLC
T3 sequence (whole entry): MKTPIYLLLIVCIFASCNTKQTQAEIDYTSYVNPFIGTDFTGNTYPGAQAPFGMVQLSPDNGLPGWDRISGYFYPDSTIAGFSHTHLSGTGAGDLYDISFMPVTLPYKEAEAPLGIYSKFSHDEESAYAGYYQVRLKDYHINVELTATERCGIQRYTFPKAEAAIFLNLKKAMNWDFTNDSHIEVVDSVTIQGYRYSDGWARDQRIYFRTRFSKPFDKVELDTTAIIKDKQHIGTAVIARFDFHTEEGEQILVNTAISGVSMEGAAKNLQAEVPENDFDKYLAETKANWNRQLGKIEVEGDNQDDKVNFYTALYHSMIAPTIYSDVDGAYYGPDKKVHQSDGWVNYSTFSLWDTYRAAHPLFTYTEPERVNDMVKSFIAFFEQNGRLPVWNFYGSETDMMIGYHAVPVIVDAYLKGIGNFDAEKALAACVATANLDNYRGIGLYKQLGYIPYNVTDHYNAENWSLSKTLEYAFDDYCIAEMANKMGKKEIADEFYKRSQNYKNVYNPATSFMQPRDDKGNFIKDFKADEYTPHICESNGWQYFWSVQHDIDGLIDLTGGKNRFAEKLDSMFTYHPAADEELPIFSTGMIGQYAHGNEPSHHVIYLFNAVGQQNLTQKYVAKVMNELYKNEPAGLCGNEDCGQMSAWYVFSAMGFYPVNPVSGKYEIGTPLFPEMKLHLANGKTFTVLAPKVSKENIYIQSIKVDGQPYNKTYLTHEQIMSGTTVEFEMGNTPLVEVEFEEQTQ

Measured: Activity

OC[C@H]1O[C@H](O[C@@H]2[C@H](O)[C@@H](O)O[C@H](CO)[C@H]2O)[C@@H](O)[C@@H](O)[C@@H]1O
100%: all assays above
